US20160345895A1
This is a selection: effects in other tests are not listed, and their absence says nothing.

Assay: Arterial remifentanil blood concentrations by LC-MS/MS
Settings: the subject with hyperalgesia, target 1.8 ng/ml

CCC(=O)N(c1ccccc1)C1(C(=O)OC)CCN(CCC(=O)OC)CC1
Steady-state blood concentration: 2.1 ng/mL
